These results are taken from PubChem BioAssay AID602179 (National Center for Advancing Translational Sciences (NCATS), 2012).

Amino acid sequences for entries named in this document (tags omitted).
UniProt O75874, whole entry, looked up, stated change not applied: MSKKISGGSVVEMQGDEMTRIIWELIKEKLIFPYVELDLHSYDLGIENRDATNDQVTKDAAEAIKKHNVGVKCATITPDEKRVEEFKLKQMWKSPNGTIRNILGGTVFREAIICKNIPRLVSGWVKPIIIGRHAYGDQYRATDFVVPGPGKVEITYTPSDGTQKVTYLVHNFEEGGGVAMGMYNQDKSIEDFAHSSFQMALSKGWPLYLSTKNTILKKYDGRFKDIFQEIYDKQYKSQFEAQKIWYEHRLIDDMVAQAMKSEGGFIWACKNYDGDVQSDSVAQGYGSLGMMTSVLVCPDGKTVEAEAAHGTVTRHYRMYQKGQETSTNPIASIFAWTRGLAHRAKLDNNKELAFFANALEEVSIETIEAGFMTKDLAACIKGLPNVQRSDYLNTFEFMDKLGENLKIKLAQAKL

This is a selection; strong and weak results do not stand in their true shares. Calls of active or inactive are those of the source. The call rests on the fitted dose curve; in most records, active means well fitted inhibition curve with a large enough effect; inconclusive means small, poorly fitted or top-dose-only effect; inactive means no such curve, though single readings can be large or run the other way.

This assay addresses Isocitrate dehydrogenase [NADP] cytoplasmic (Homo sapiens) (UniProt O75874). Nature of the assay: qHTS for Inhibitors of mutant isocitrate dehydrogenase 1 (IDH1): qHTS. Further: nearly all actives have a fitted effect of over 65% in size. The following applies: IDH1-R132H enzyme, NADPH consumption, diaphorase/resazurin fluorescence; at 76.6 µM (top of the series). From the text: Unbiased genomic sequencing for 22 glioma genomes found recurrent mutation of isocitrate dehydrogenase 1 (IDH1) on chromosome 2q33-a gene encoding the cytosolic isoform of IIDH1associated with the tricarboxylic acid cycle (TCA) that catalyzes the oxidative decarboxylation of isocitrate, yielding alpha-ketoglutarate and CO2 via NADP+ to NADPH conversion. Subsequent studies confirmed the recurrent IDH mutations in up to 70% of secondary gliomas and in 10% of AML cases. […] This in effect defines IDH1 as an oncogene, and provides an extraordinary opportunity to discover chemical probes against mutant IDH1 that may translate into much needed new therapies for glioma and AML patients. […] NIH Chemical Genomics Center [NCGC] NIH Molecular Libraries Probe Centers Network [MLPCN] MLPCN Grant: DA032129 Assay Submitter (PI): Lenny Dang, Agios Pharmaceuticals
IDH1-R132H (0.5 ug/mL) was dispensed into black, solid-bottom 1536-well plates at 3 uL/well in 20 mM Tris-HCl (pH 7.5), 150 mM NaCl, 10 mM MgCl2, 4 mM beta-ME, and 0.05% protease-free BSA. Then, 23 nL of compounds or DMSO were delivered to each well using a pin tool. A pre-read was run on the Viewlux to identify fluorescent compounds (540 nm excitation filter, 598 nm emission filter, bodipy mirror and 2 second exposure). After 30 minutes of incubation with compound, 3 uL of substrate mix were dispensed (0.016 mM NADPH, 2 mM alpha-KG, 20 mM Tris-HCl (pH 7.5), 150 mM NaCl, 10 mM MgCl2, and 0.05% protease-free BSA). Plates were spun for 1 min at 1000xg and incubated at room temperature for 80 min. Then 1.5 uL of each detection reagent component for the coupling system were added (0.12 mg/mL diaphorase and 0.072 mM resazurin, each in 20 mM Tris-HCl (pH 7.5), 150 mM NaCl, 10 mM MgCl2, and 0.05% protease-free BSA ) The protein, substrate and two detection components were maintained at 4 °C throughout the screen. Additionally, the substrate and resazurin reagents were protected from light. The plates were measured on an Envision plate reader for fluorescence signal using a 540 nm excitation filter and 590 nm emission filter with 10 flashes. 1x and 0x (no-enzyme) IDH1-R132H enzyme control were used to normalize %Activity of identified inhibitors; 0x enzyme values corresponded to 100% Activity (full inhibition), while 1x IDH1-R132H enzyme values were used to normalize 0%Activity (no inhibition). Concentration-response curves were fitted to the signals arising from the resulting fluorescence. The concentration-effect curves were then classified based on curve quality (r2), response magnitude and degree of measured activity, and compounds were subsequently categorized based on their curve class. […] Keywords: isocitrate dehydrogenase, IDH1, IDH1-R132H, MLSMR, MLPCN, NIH Roadmap, qHTS, NCGC
(In general: qHTS replaces the single test concentration by a dilution series.)
With `CCOC(=O)c1ccc(NC(=O)C(C)(CCl)SC)cc1` (configuration not stated), the activity change, negative = inhibition is inactive: 0.0232%. Turning to `CSc1ccc(Nc2c([N+](=O)[O-])cc([N+](=O)[O-])cc2[N+](=O)[O-])cc1`, the activity change, negative = inhibition is inactive: -2.83%. For the compound `O=C(OC1CN2CCC1CC2)c1cccc([N+](=O)[O-])c1` (configuration not stated), the activity change, negative = inhibition is inactive: 12.7%.

Turning to `CCC(C)N(CC(C)C)C(=S)SC(NC(C)=O)C(Cl)(Cl)Cl` (configuration not stated), the activity change, negative = inhibition is inactive: 2.69%. For `COP1(=S)c2c(C)nn(CCC#N)c2N=C(c2ccc(F)cc2)N1C` (configuration not stated) the value was inactive: 3.52%. For `O=C(Nc1ccncc1[N+](=O)[O-])c1ccc([N+](=O)[O-])cc1[N+](=O)[O-]` the value was inactive: -3.18%; for `O=C(COc1ccccc1)OC1CN2CCC1CC2` (configuration not stated), inactive: -4.53%; for `O=C(O)C(=O)c1ccc(N(CCCl)CCCl)cc1`, inactive: 0.509%.

Consider `CCOC(=O)Nc1cccc([As](=O)(O)O)c1`, for which the activity change, negative = inhibition is inactive: -2.48%. For `O=[N+]([O-])c1ccc(Nc2ccc(Oc3ccc([N+](=O)[O-])cc3[N+](=O)[O-])cc2)c([N+](=O)[O-])c1` the value was inactive: -6.85%. For `O=P(Nc1ccccn1)(c1cccc2ccccc12)c1cccc2ccccc12` the value was inactive: -2.81%; for `Cc1cc(SC(NC=O)C(Cl)(Cl)Cl)ncn1` (configuration not stated), inactive: 12.4%. As to `CC1CCNP(=O)(N(CCCl)CCCl)O1` (configuration not stated), the activity change, negative = inhibition is inactive: 7.51%. For `CCOC(=O)Nc1ccc([As](=O)(O)O)c(O)c1` the value was inactive: -5.11%; for `O=C(O)C(O)c1ccc(N(CCCl)CCCl)cc1` (configuration not stated), inactive: 3.77%; for `Cc1cc(SC(NC(=O)c2ccccc2)C(Cl)(Cl)Cl)nc(C(C)C)n1` (configuration not stated), inactive: 4.86%. For `CCCCOc1ccc(C(=O)NCC2(N3CCCCC3)CCCCC2)cc1OC` the value was inactive: -6.12%; for `COP(=O)(OC)N1CC1c1ccccc1` (configuration not stated), inactive: -4.2%. For `CC(C)c1ccc(OP(=O)(Nc2ccccn2)Oc2ccccc2F)cc1` (configuration not stated) the value was inactive: 6.37%. Consider `COC(=O)C1(C)COP(=O)(N2CCCCCC2)OC1` (configuration not stated), for which the activity change, negative = inhibition was inactive: 0.862%. For `ClCCSc1nnc(-c2cccnc2)o1` the value was inactive: 0.733%; for `O=[N+]([O-])c1cc([N+](=O)[O-])c(-c2ccn[nH]2)s1`, inactive: 4.6%; for `CCN(CC)C(=S)SC(NC=O)C(Cl)(Cl)Cl` (configuration not stated), inactive: 2.73%. For `O=C(OC1CN2CCC1CC2)c1cccc2[nH]cnc12` (configuration not stated) the value was inactive: 2.47%; for `CC(C)NC(=O)NP(=O)(Oc1ccccc1)Oc1ccccc1`, inactive: -4.58%; for `COc1cc(C(=O)NCC2(N3CCOCC3)CCCCC2)ccc1OCC(C)C`, inactive: 0.972%. Turning to `O=[N+]([O-])c1ccc(-c2cc([N+](=O)[O-])c(O)c([N+](=O)[O-])c2)cc1`, the activity change, negative = inhibition was inactive: 9.26%. For `O=[As](O)(c1ccc(O)cc1)c1ccccc1O` the value was inactive: 10.4%; for `C[As](=O)(O)c1cccc(C(=O)O)c1`, inactive: 12.9%; for `Cc1ccc2nc3c(c(C)c2c1)CC(C(Cl)Cl)S3` (configuration not stated), inactive: 13.3%. For `Cc1ccc(OP(=O)(Nc2ccc([N+](=O)[O-])cn2)Oc2ccc(C)cc2)cc1` the value was inactive: -4.34%; for `COc1ccc(N/C(=N/P(=O)(N2CCOCC2)N2CCOCC2)N2CCOCC2)cc1`, inactive: 8.24%; for `O=[N+]([O-])c1cc(Oc2ccc([N+](=O)[O-])cc2C(F)(F)F)cc([N+](=O)[O-])c1`, inactive: 0.813%. For `Cc1cc(=O)[nH]c(N[N+](=O)[O-])n1` the value was inactive: -1.46%.

On to `O=C(OC1CN2CCC1CC2)C12CC3CC(CC(C3)C1)C2` (configuration not stated), for which the activity change, negative = inhibition is inactive: 11.7%. For `Cc1c2c(nc3ccccc13)SC(C(Cl)Cl)C2` (configuration not stated) the value was inactive: -0.337%. For `COc1cc(I)ccc1[As](=O)(O)O` the value was inactive: -3.99%; for `COc1ccc2nc(NP(=O)(c3ccccc3)c3ccccc3)sc2c1`, inactive: -6.54%; for `O=P1(N(CCCl)CCCl)OCCCN1CCCl` (configuration not stated), inactive: 9.67%.

Turning to `O=P1(N(CCCl)CCCl)Nc2ccccc2N1`, the activity change, negative = inhibition was inactive: -1.08%. For `CCCOP(=S)(Nc1nc(N)cc(=O)[nH]1)OCCC` the value was inactive: -3.14%; for `Cc1ccc(NCCc2c([N+](=O)[O-])cc([N+](=O)[O-])cc2[N+](=O)[O-])cc1`, inactive: 6.35%. For `Nc1cccc2c([As](=O)(O)O)cccc12` the value was inactive: -5.45%; for `CCOP(=O)(Nc1cccc2ccccc12)OCC`, inactive: 0%; for `COc1cc(C2NCCC3(OCCO3)C2(C)C)cc(OC)c1OC` (configuration not stated), inactive: 2.16%. For `CS(=O)(=O)c1ccc(Cl)c(NC(=O)COC(=O)C(O)(c2ccccc2)c2ccccc2)c1` the value was inactive: -12.1%. On to `COc1cc(C(=O)NCC2(N3CCOCC3)CCCCC2)cc(Cl)c1OC(C)C`, for which the activity change, negative = inhibition is inactive: 20%. Regarding `O=[As](O)(O)c1cccnc1`, the activity change, negative = inhibition is inactive: -4.37%.

With `O=C(OC1CN2CCC1CC2)c1ccc(Cl)cc1` (configuration not stated), the activity change, negative = inhibition is inactive: -11.6%. As to `O=[As](O)(c1cccc(O)c1)c1cccc(O)c1`, the activity change, negative = inhibition was inactive: -9.91%.

`Cc1cccc(OCC(=O)OC2CN3CCC2CC3)c1` (configuration not stated): the activity change, negative = inhibition is inactive: -1.24%. For the compound `NC(=O)Nc1ccc([As](=O)(O)O)cc1`, the activity change, negative = inhibition was inactive: -13.7%. For `CN(C(=O)Cc1ccc(Cl)c(Cl)c1)[C@H]1CC[C@@]2(CCCO2)C[C@@H]1N1CCCC1` the value was inactive: -1.31%; for `CN(C)C(=O)c1cc([N+](=O)[O-])cc2c1-c1c(cc([N+](=O)[O-])cc1[N+](=O)[O-])C2=O`, inactive: 20.7%. On to `O=[N+]([O-])c1ccc2c(c1)nnn2O`, for which the activity change, negative = inhibition is inactive: 4.55%.

As for `CN(C(=O)Cc1ccccc1)[C@@H]1CC[C@]2(CCCO2)C[C@H]1N1CCCC1`, the activity change, negative = inhibition was inactive: 1.2%. For `CCOP1(=S)c2c(C)nn(CCC#N)c2N=C(c2ccc(F)cc2)N1C` (configuration not stated) the value was inactive: 1.93%; for `N#CCCN(C(=O)COC(=O)C(O)(c1ccccc1)c1ccccc1)c1ccc(F)cc1`, inactive: 5.5%. For `CS(=O)(=O)c1cc([N+](=O)[O-])c2no[n+]([O-])c2c1` the value was inactive: 6.07%. For `O=P(Nc1nccs1)(c1ccccc1)c1nc2ccccc2s1` (configuration not stated), the activity change, negative = inhibition is inactive: 2.69%. As for `O=P(Nc1nccs1)(Oc1ccccc1)Oc1ccccc1`, the activity change, negative = inhibition is inactive: -2.13%. For the compound `CCOP1(=S)c2c(C)nn(CCC#N)c2N=C(c2ccccc2F)N1C` (configuration not stated), the activity change, negative = inhibition was inactive: 7.34%.
